Patent US20040198743A1 (Schering Corporation, priority 2003, published 2004)

Sequences of proteins named here, by UniProt entry; tags and fusion partners are left off. A change or cut given only in a name is not applied to a line headed by its entry.
UniProt Q9Y5N1: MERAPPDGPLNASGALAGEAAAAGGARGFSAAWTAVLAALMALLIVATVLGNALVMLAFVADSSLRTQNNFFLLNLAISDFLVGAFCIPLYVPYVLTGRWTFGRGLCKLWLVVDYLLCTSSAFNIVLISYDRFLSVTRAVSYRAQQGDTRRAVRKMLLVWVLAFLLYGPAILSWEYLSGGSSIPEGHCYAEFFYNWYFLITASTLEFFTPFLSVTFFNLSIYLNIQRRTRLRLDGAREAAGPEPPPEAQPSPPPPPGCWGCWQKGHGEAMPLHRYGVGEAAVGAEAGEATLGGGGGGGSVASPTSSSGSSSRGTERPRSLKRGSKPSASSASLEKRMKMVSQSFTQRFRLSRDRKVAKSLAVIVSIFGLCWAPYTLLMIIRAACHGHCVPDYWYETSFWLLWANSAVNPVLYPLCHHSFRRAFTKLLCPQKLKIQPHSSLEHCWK

Target: T1, Histamine Receptor H3 (Homo sapiens, UniProt Q9Y5N1)
T1 construct: expressed in transfected cells; host or cells: HEK293
Assay: Membrane binding assay, [3H]-N'-methylhistamine for H3 binding
Procedure: Materials. Rat and guinea-pig brains were obtained frozen from Rockland Immunochemicals (Gilbertsville, Pa.). Cell lines expressing recombinant human receptors were generated by using standard transfection techniques. The following radioligands were obtained from Dupont NEN (Boston, Mass.): [^3H]-pyrilamine, 23 Ci/mmol for H 1 binding and [^3H]-N′-methylhistamine, 82 Ci/mmol for H3 binding.
Methods. Recombinant cell lines (i.e., human H1—CHO cells and human H3-HEK293) were cultured in Dulbecco's modified Eagle's medium/10% fetal bovine serum supplemented with 2 mM glutamine, penicillin (100 U/ml), and streptomycin (100 μg/ml) in a humidified 5% CO2 atmosphere at 37° C. Selection was maintained with 0.5 mg geneticin/ml. […]
Binding assays. […] Nonspecific binding was determined in the presence of 10^−6 M chlorpheniramine for H1 binding or 10^−6 M clobenpropit for H3 binding. […] These were washed three times with 1.2 ml of Tris buffer, dried in a microwave oven, impregnated with Meltilex wax scintillant and counted at 40% efficiency in a Betaplate scintillation counter (Wallac). IC50 values were determined by interpolation or by nonlinear, least-squares, curve-fitting with the Prism program (GraphPad Software). Ki values were determined in the manner of Cheng and prusoff (Cheng, et al., (1973) Biochem. Pharm. 22:3099-3108).

## NC(=NCc1ccc(Cl)cc1)SCCCc1cnc[nH]1 [Formula 16]
  Ki: 0.06 nM
